# Measurements reported in patent US12162935B2, “Regimens, compositions and methods with capsaicin and TNF-alpha inhibitor” (priority 2018, dated 2024).
# By UniProt entry, the sequences of proteins in these tests, tags left out.
# UniProt Q8NER1, whole entry, species assumed: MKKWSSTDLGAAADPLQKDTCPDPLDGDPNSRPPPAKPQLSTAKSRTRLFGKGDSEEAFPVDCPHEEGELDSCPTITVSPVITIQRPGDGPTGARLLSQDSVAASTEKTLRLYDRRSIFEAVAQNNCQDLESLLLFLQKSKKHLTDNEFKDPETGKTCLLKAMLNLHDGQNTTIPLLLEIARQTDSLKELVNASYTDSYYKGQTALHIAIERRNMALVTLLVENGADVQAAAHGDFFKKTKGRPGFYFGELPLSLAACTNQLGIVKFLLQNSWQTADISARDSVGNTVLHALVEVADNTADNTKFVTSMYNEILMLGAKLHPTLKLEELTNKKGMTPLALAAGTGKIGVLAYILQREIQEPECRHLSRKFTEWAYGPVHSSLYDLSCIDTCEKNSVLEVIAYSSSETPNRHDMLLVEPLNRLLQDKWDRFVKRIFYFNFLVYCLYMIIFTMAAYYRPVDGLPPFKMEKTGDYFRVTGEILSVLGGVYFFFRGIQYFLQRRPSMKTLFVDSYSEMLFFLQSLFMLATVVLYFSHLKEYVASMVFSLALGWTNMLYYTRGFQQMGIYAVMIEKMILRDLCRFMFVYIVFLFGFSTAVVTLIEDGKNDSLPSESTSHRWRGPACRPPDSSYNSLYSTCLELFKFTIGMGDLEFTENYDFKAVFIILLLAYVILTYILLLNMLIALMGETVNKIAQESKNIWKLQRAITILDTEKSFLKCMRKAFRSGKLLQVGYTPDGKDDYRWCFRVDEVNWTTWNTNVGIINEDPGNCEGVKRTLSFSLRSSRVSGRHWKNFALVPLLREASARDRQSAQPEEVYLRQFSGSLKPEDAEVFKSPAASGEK
# Target: TRPV1 (Homo sapiens, UniProt Q8NER1)
# Experiment: Ca2+ imaging (Fluo-4AM) in HEKVR1 cells
# Assay type: cell-based
# Settings: capsaicin 2.5 μM with addition of TNF-α 0.1 μg/ml, 30 minutes
smiles,measurement,value
"COc1cc(CNC(=O)CCCC/C=C/C(C)C)ccc1O [capsaicin, 8-methyl-N-vanillyl-trans-6-nonenamide]",increase in Ca^2+ over basal fluorescence,3146±532%
